Most compounds without a hit are left out; they make up all but 2.8% or so of the library.
esBAF inh = Bmi1 luciferase reporter increase in mESCs, primary screen, esBAF inhibitor project, mouse ES cells, Bmi1 luciferase knock-in, single point | hit rate 2% among 350,000 | AID 602393, 2012 | 24 h; 100% = twice the neutral-well signal | reporter increase, % at 12.5 µM; in the data active = activation above about 40%;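 also: 0% = median of the plate's neutral control wells and 100% = double that signal; a rise in the Bmi1 reporter signal indicates esBAF inhibition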
PGC1a acetyl inh = inhibitors of PGC1a acetylation signal, primary screen, cell-based, U2OS, AlphaScreen, inhibitor mode; AlphaScreen anti-acetyl-lysine; with virally co-expressed GCN5 acetyltransferase; inhibition, % at 15.6 µM; hit rate 0.17% among 350,000; AID 651687, 2012;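 active = every replicate shows inhibition of at least 40%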;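 also: 0% = neutral control wells and 100% = positive control wells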
UUG fidelity = modulators of start codon recognition fidelity in yeast; AID 602363; hit rate 0.13% among 350,000; activity score, % at 18.7 µM; S. cerevisiae UUG-firefly luciferase reporter, luminescence/redox ratio;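 active = replicate mean at a twofold rise or more, about +100% in these data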;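 note: firefly luciferase made from a UUG start codon reports start codon fidelity; reporter light over untreated wells divided by growth signal over untreated wells; some hits fall short of that in this replicate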
PglD DTNB = C. jejuni PglD acetyltransferase inhibitors, primary screen, biochemical, DTNB colorimetric, single point; purified PglD enzyme, DTNB colorimetric CoA detection; inhibition, % at 12.5 µM; hit rate 0.098% among 360,000; AID 602405, 2012; UDP-N-acetylbacillosamine N-acetyltransferase PglD (Campylobacter jejuni); in the data active = inhibition above about 16%, passing the limit was not always enough
Statin myotox sup = suppressors of statin myotoxicity in C2C12 myotubes, primary screen, cell-based, single point, plate reader; C2C12 myotubes + simvastatin, ATP luminescence, 48 h; scaled: DMSO 0, geranylgeraniol control 100; rescue of ATP level, % at 7.49 µM; hit rate 0.78% among 330,000;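 active = mean ATP rescue above about 67%, or every replicate alone reaching that limit, limit read from the data, passing the limit was not always enough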;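 also: myotubes were challenged with 10 µM simvastatin during compound exposure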
E-selectin induc = E-selectin induction in HUVECs, primary screen, imaging, HUVEC, immunofluorescence imaging, single point; hit rate 0.37% among 260,000; activation, % at 7.58 µM; normalized: neutral wells 0, TNF-alpha wells 100;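 active = mean E-selectin-positive cell signal at least 10% of the positive control, reached in at least 60% of replicates, without over 20% cell loss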
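material = human umbilical vein endothelial cells (HUVEC), E-selectin induction | quantity = 3,000 cells/well | medium = EGM-2 growth medium on 0.1% gelatin-coated wells | technique = immunofluorescence imaging | read-out basis = % PE-positive cells | control set = TNF-alpha positive control, DMSO neutral control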
Starred values were filed as active, the others as inactive; / = no result given.

molecule,esBAF inh,PGC1a acetyl inh,UUG fidelity,PglD DTNB,Statin myotox sup,E-selectin induc
CCC(=O)c1ccc(OCc2ccccc2)c(OC)c1,95*,-19,/,/,15,/
Cc1noc(C)c1S(=O)(=O)N(C)C[C@H]1Oc2ccc(NC(=O)NC3CCCCC3)cc2CC(=O)N([C@H](C)CO)C[C@H]1C,7,3,16,0,-7,3
C[C@H](CO)N1C[C@H](C)[C@@H](CN(C)S(C)(=O)=O)Oc2ccc(NS(C)(=O)=O)cc2C1=O,1,3,-20,0,-9,/
COc1ccc(/C=C/C(=O)NC(=S)Nc2ccccc2)cc1OC,3,/,-16,4,17,0
COc1ccc(COc2ccccc2C(N)=O)cc1F,18,-10,-16,0,109*,/
COc1cc(C(N)=O)ccc1OCc1ccccc1,14,7,-13,3,117*,/
COc1cc(/C=C/C(=O)NC(=O)c2ccccc2O)ccc1OC(C)=O,54*,-15,-17,8,0,/
Cc1ccccc1-c1cnc2c(c1)C(=O)N([C@@H](C)CO)C[C@@H](C)[C@@H](CN(C)CC1CC1)O2,-3,6,4,/,35,1
O=C(C[C@H]1C[C@H]2c3cc(NS(=O)(=O)c4ccc(F)cc4)ccc3O[C@H]2[C@@H](CO)O1)N1CCOCC1,4,6,-11,-2,-3,0
O=C(C[C@H]1C[C@@H]2c3cc(NC(=O)C4CCOCC4)ccc3O[C@@H]2[C@H](CO)O1)NCc1cc(F)ccc1F,-4,3,/,-2,-2,0
CCOC(=O)c1sc(=S)n(-c2ccc(Cl)cc2)c1SC,-3,-2,-27,0,105*,/
CCC(=O)Nc1ccc2c(c1)C(=O)N(C)C[C@@H](OC)[C@H](C)CN(C(=O)c1cnccn1)[C@@H](C)CO2,-7,-1,8,1,-4,0
CC1CCN(CC(=O)Nc2ccc(Br)cc2[N+](=O)[O-])CC1,17,-12,0,3,5,/
O=C(CN1CCCCC1)Nc1ccc(Br)cc1[N+](=O)[O-],49*,-1,-12,3,-4,5
COc1ccc(N2CCN(C(=O)c3ccc4c(c3)CCN4S(=O)(=O)c3ccccc3)CC2)cc1,-2,36,-1,-20,134*,0
CS(=O)(=O)N1CCc2cc(C(=O)N3CCOCC3)ccc21,-5,-13,-8,-1,98*,/
CC(=O)Nc1ccc(NC(=O)c2ccc3c(c2)CCN3S(C)(=O)=O)cc1,-2,-2,-35,/,-3,/
O=C(c1ccc2c(c1)CCN2S(=O)(=O)c1ccccc1)N1CCN(c2ccc(F)cc2)CC1,5,8,-16,1,18,/
CC(C)c1ccc(NC(=O)c2ccc3c(c2)CCN3S(C)(=O)=O)cc1,11,82*,-20,-4,-34,/
COc1cccc(NC(=O)c2ccc3c(c2)N(C)CCS3)c1,51*,-1,-24,2,-8,0
CS(=O)(=O)N1CCc2cc(C(=O)N3CCCCC3)ccc21,-1,4,-14,2,4,/
COc1cccc(NC(=O)c2ccc3c(c2)CCN3S(C)(=O)=O)c1,56*,/,-19,7,-42,/
CCOC(=O)c1ccc2nc3c(cc2c1)CCS3,50*,2,-19,2,40,/
CCOC(=O)c1ccc2nc(C)c3c(c2c1)OC(C)C3 (stereo not drawn),-7,-12,-22,1,-8,/

Record cards, from the list above.
O=C(c1ccc2c(c1)CCN2S(=O)(=O)c1ccccc1)N1CCN(c2ccc(F)cc2)CC1 reads esBAF inh = 5; PGC1a acetyl inh = 8; UUG fidelity = -16; PglD DTNB = 1; Statin myotox sup = 18; E-selectin induc = /
CS(=O)(=O)N1CCc2cc(C(=O)N3CCCCC3)ccc21 reads esBAF inh = -1; PGC1a acetyl inh = 4; UUG fidelity = -14; PglD DTNB = 2; Statin myotox sup = 4; E-selectin induc = /

Other structures follow:
molecule,esBAF inh,PGC1a acetyl inh,UUG fidelity,PglD DTNB,Statin myotox sup,E-selectin induc
CCCC(=O)Nc1ccc(Oc2ccc(NC(=O)CCC)cc2)cc1,-3,-3,-3,-6,6,/
CCCC(=O)Nc1ccc(C#Cc2ccccc2)cc1,54*,-4,-9,0,-4,/
CCCCC(=O)NC(=S)Nc1cccc(NC(=O)CC)c1,17,15,-21,5,-5,/
CCCCC(=O)Nc1ccc(C(=O)c2ccccc2)cc1,49*,7,1,4,4,/
CCCCC(=O)NC(=S)Nc1cccc(C(=O)O)c1,44*,1,1,1,2,/
